Legend:
BaF3 = test: Antiproliferative activity against mouse BaF3 cells expressing TEL-fused JAK3 assessed growth inhibition incubated for 2 to 5 days by CellTiter-Glo assay; assay type: functional; settings: time 2-5 day
[1] = target: Epidermal growth factor receptor (Homo sapiens, UniProt P00533, T790M)

Chains of the proteins cited; added tags and fusions are not shown. Residues count along the entry.
UniProt P00533, 25-1210 T790M limits assumed: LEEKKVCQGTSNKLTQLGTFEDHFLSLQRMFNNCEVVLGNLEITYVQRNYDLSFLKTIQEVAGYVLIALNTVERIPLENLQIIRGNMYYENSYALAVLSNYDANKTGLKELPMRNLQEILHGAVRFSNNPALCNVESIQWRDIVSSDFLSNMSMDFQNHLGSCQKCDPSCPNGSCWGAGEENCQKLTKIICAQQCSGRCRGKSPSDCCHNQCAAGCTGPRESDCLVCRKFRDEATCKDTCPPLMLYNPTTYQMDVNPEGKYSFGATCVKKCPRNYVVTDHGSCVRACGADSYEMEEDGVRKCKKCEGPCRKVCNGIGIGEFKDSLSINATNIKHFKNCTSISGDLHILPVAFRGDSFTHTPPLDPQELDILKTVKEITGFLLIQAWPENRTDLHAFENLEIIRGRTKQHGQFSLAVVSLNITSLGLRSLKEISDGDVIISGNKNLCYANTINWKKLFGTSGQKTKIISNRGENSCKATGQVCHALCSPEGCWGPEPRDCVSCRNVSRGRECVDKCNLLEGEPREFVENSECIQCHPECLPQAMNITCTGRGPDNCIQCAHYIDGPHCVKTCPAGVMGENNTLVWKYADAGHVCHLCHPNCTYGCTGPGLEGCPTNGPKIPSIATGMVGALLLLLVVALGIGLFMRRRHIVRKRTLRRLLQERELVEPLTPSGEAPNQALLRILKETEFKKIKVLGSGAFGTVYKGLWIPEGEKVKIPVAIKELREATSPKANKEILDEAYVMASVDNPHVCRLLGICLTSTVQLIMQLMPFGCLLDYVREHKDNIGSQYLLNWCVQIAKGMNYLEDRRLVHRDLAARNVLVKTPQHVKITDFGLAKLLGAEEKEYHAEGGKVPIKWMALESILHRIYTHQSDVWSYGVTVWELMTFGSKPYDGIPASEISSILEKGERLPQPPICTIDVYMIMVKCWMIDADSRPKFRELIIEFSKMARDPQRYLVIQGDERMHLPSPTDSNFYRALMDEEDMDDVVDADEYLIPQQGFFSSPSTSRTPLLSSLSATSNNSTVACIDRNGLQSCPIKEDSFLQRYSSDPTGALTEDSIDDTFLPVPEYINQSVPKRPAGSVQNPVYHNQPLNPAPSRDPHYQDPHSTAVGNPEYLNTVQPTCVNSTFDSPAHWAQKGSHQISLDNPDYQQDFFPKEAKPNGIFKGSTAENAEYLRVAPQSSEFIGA

For `C=CC(=O)Nc1cc(-n2c(=O)ccc3cnc4ccc(-c5ccc(NS(C)(=O)=O)cc5)cc4c32)ccc1C`, which GI50 (BaF3) is on record?
The GI50 was 7.98 µM.

And the IC50 [1]?
Its IC50 is 0.175 µM.

Reference: ChEMBL document CHEMBL5715949, “Discovery of a selective irreversible BMX inhibitor for prostate cancer” (ACS Chem Biol, 2013)
